Data taken from ChEMBL document CHEMBL5137134, “Developing the Natural Prenylflavone Artocarpin from Artocarpus hirsutus as a Potential Lead Targeting Pathogenic, Multidrug-Resistant Staphylococcus aureus, Persisters and Biofilms with No Detectable Resistance” (J Nat Prod, 2022).

Legend:
Staphylococcus aureus [1] = conditions: ATCC 29213, time 24.0 hrs
Staphylococcus aureus [2] = conditions: ATCC 29213, time 16-18 hrs

## GENTAMICIN
Staphylococcus aureus [1]
  FIC: 0.12
Staphylococcus aureus [2]
  MIC: 0.5 µg/mL
